Source: patent US9889225B2, “Method for bone formation by administering poly(lactic-co-glycolic acid) cross-linked alendronate” (KAOHSIUNG MEDICAL UNIVERSITY, priority 2010, dated 2018)

Assays:
[1] = Release kinetics in vitro of alendronate from PLGA-ALN carriers in PBS; assay type: physicochemical; settings: for concentration of the released alendronate: in PBS
rat femur bone defect = settings: 6 weeks after implantation

With “poly(lactic-co-glycolic acid) cross-linked alendronate [PLGA-ALN]” the “alendronate release each day” value ([1]; first two days, per day) was 16%, the “two days release of alendronate” value ([1]; first two days, total) was 32% and the “concentration of the released alendronate” value ([1]; first two day of burst release) was ~5.5e-07 M. For the same substance, the “concentration of the released alendronate” value ([1]; remaining 10 days) was 1.2 to 0.5×10^−7 M, the “alendronate release per day” value ([1]; remaining days) was 4 to 8% and the “effect of implantation on the new bone formation process (viable cells in lacunae)” value (rat femur bone defect) was “did not affect the new bone formation process”. The “fibril collagen formation (Masson staining)” value (rat femur bone defect) was “did not alter the fibril collagen formation”.
